Ab-91 heavy chain CDR variants: yeast mating affinities

Data: MIT Lincoln Laboratory AlphaSeq set, Engelhart et al. 2022, doi:10.1038/s41597-022-01779-4, as distributed in FLAb.

Antigen: PDVDLGDISGINAS, a 14-residue peptide of the SARS-CoV-2 spike HR2 region.

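The parent was found by panning a naive human phage display library on the peptide. AAYL51 was designed without a model: most single CDR substitutions and a random sample of double and triple ones. Affinity was read by AlphaSeq, a pooled yeast mating assay with surface-displayed partners. The frequency of each diploid, read from paired DNA barcodes, reflects how well the two displayed proteins bind. Read counts were normalised to the haploid input and turned into Kd by a linear fit to BCL2-family pairs of known affinity, for each replicate. The assay was run in three technical replicates.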

Parent scFv Ab-91: VL joined to VH by a (GGGGS)3 linker. Changes lie in the heavy chain CDRs alone.
VL: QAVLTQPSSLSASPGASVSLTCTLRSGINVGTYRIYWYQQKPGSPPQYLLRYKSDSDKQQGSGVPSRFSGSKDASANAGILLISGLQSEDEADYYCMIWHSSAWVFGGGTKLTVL
VH: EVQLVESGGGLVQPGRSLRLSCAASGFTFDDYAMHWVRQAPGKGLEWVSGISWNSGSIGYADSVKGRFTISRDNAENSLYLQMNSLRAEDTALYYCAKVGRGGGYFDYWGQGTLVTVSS

Variants are written as CDR1, CDR2 and CDR3 of the heavy chain (limits as in the source). Parent: GFTFDDYAMH, GISWNSGSIGYADSVK, VGRGGGYFDY. The read-out is the apparent dissociation constant on a log10 scale (nM): the lower, the stronger. A mean of the replicates is given; it leaves out those without a signal. "no signal" means that the variant was in the library but no mating with the target was seen in any replicate; the authors take this as a sign of poor binding, and no number exists. Three control strains display no target. For library AAYL51, 21% of the pairings with them gave a signal, with a median of 4.54 and one signal in twenty below 3.26, so weak values seen in few replicates may be background. For reference, the parent read 1.86 as the reference entry and 0.88 as a member of this library.

CDR-H1	CDR-H2	CDR-H3	mean, log10 nM	seen in
GFTFDDYAMH	GISWNSGSIIYADSLK	VGRGGGYFDY	4.15	2/3
GFTFDRYAMG	GISWNSGSIGYKDSVK	VGRGGGYFDY	4.72	2/3
GFTFDDYAMH	GISWNSGSIGWADSVK	QGRGGGSFDY	no signal	0/3
GFTFDDYAMH	GISRNSGSIVYADSVH	VGRGGGYFDY	3.87	1/3
GFTFDESAMH	GISWNSGSIGYADSVK	EGRGGGYFDY	0.75	3/3
GFTFDDYAMH	GISKASGSIGYADSVK	VTRGGGYFDY	5.26	1/3
GFTFDDYAMH	GIHPNSGSIGVADSVK	VGRGGGYFDY	5.02	3/3
GFTFDDYAMH	GISWNSGSGGYADSVK	VHRGGRYFDY	no signal	0/3
GFTFDDYAMH	GISWPSGSIGYADSVK	VGRGGGYFDA	no signal	0/3
GFTFDDYAMH	GFSWNSGAIGYGDSVK	VGRGGGYFDY	no signal	0/3
GRTFDDYATH	GIAWNSGSIGYADSVK	VGRGGGYFDY	3.82	2/3
GFTFDDYAMH	GDSWNSGSIPYADSVK	VGRGGGYFDP	no signal	0/3
GFTFDDYAMH	GISWNCGSIGYAISGK	VGRGGGYFDY	no signal	0/3
GFQFDDYAMH	RISWNSKSIGYADSVK	VGRGGGYFDY	no signal	0/3
GFTFDDYAMH	GISWNSGMIGYVDSVK	VGRGGGYFDY	2.55	3/3
GFTFDDYAMH	GIDWFRGSIGYADSVK	VGRGGGYFDY	no signal	0/3
GFTFDDYAMS	GKSWNSGSSGYADSVK	VGRGGGYFDY	3.56	1/3
GFTFDDYAMH	GISWNAGSSGYADSVK	VDRGGGYFDY	1.28	3/3
GYTFDDYAEH	GISWNSGSIGYADSVK	VGRGGGYWDY	2.10	3/3
GFTFDDYAMH	GIEWNSGSIGYADSVK	VGRGGGYFDC	5.22	3/3
GFTFDDYAMF	GISWNSGSIGYADSVK	VGRGGHYFDN	no signal	0/3
CFTFDDYAMH	GISWNSGSIGYADSVK	VGRGGEYFDY	4.56	1/3
EFTFDDYAQH	GISWNSGSTGYADSVK	VGRGGGYFDY	3.98	2/3
RFHFDDYAMA	GISWNSGSIGYADSVK	VGRGGGYFDY	4.73	1/3
GFTFDDYAMH	GISWNSGSDGYADSVK	VGRGGGQFDY	3.01	2/3
GFTFDDYEMH	GISRNSGSIGYADSVK	VGRGGGYFWY	4.75	3/3
GFTFDDYAMH	QISWNSGSIGYADSVK	VGRGAGYFGY	no signal	0/3
GFTHDDYAMH	GISWNSGSIGYADSVK	VGRGGHYFDY	5.40	2/3
GFTFDDYALH	GISWNSGSRGYADSVK	VGRGGGYFYY	no signal	0/3
GFTFDDYAMF	GISWNSGSIGYADSVK	VGRGGGYFTY	no signal	0/3
GFKFDDYAMQ	NISWNSGSIGYADSVK	VGRGGGYFDY	5.24	3/3
GFTFDDYAMG	GISWNSGRIGYADSVK	VGRGRGYFDY	4.51	1/3
GFTFDDGAMH	GIKWNSGSIGYADSVK	YGRGGGYFDY	5.73	1/3
NFTFDDYAMH	GISWNSGSNNYADSVK	VGRGGGYFDY	4.65	1/3
GFTFDDYAMH	EISWWSGSIWYADSVK	VGRGGGYFDY	3.42	1/3
GFTADDYAMH	GISWNSGSICYADSVK	VGRGGGYFDY	4.46	2/3
GFTFDDYAMV	GISWRSGSIGYADSVK	VGRGGGYFDM	4.00	1/3
GFTFDDYASH	GISWNSPSEGYADSVK	VGRGGGYFDY	3.53	1/3
GFTFDDYAMH	GKFWNSGSIGYADSVK	VGRGGGYFDY	no signal	0/3
GFTFDDYAMH	GISWNSHSIGYADSVG	VGRGGEYFDY	4.59	3/3
GFTFDDYAMH	GESWNSGSIGYAKSVK	VGRGIGYFDY	no signal	0/3
GFTFDDYADH	GISWNSGSTGYADSVK	VGRGGGYFDY	no signal	0/3
GFTPDDYAMH	GISWNSGSIGYADCVK	VGRGDGYFDY	3.86	1/3
GFTTDDYAMH	GISWNSGSIGYADSVK	VGRWGGYQDY	no signal	0/3
GFTFDDYIMH	GISWNSGSIGYADSWD	VGRGGGYFDY	no signal	0/3
GFTFDYYAMH	GISWNSGSITYADSVK	VGRGGGYFDY	no signal	0/3
GFGFDDYTMH	GISCNSGSIGYADSVK	VGRGGGYFDY	4.87	1/3
GFTFDDYAMH	GISWNSGSIGAADSVK	RGRGGGYFDQ	no signal	0/3
GFTFDDCAMH	GISWNSGSIGYADFVK	VGRNGGYFDY	4.93	2/3
GFTFDDYMMH	GISWNSGSIGYADSVK	VGRGGGYFKY	5.17	3/3
GFTFDDYAMH	GISWNSGSIGYADSVC	VGRGGGYFYF	4.17	1/3
GFTFDDYAMH	GISMNAGSIGYADSVK	VGRGGGGFDY	3.33	1/3
GFTFDDYAMH	GISWNSGKISKADSVK	VGRGGGYFDY	no signal	0/3
GFTFDDYAKH	GISWMSGSIGYADSVK	VGRGHGYFDY	no signal	0/3
GFTFDDYAMH	GISTNSGSIGYADSVK	VGRGGGYFIY	1.00	3/3
GFTFDDYAMH	GISWNSGSIGYADSWK	VYRGGGCFDY	no signal	0/3
GLTFKDYAMH	GISWNSGSIGNADSVK	VGRGGGYFDY	4.90	2/3
RFTFHDYAMH	GKSWNSGSIGYADSVK	VGRGGGYFDY	4.38	2/3
GFTFDDYAMQ	GISWNSGSIGYADSVK	VGRGGHVFDY	4.58	1/3
GFTFDLYAMH	GISWNSGSIGYADSVK	VGRGGGYGLY	4.20	2/3
GFMFHDYAMH	GISMNSGSIGYADSVK	VGRGGGYFDY	0.91	3/3
HFTFDDYAMH	WISWNSGSIGYADSVK	VGRGKGYFDY	4.98	1/3
GKTFDDYAMH	GISWNRGSIGYADSVK	VGRQGGYFDY	no signal	0/3
GFTFDDYAMH	GISWNSGSIGYADSVK	VGYGGGYMDY	no signal	0/3
GFTFDDYAMH	GISWNSGSIGYAKSVK	VGCGGGYFDY	no signal	0/3
GFTFDDYAMH	RISWNSGSIGYADSVK	VGRGGGYCDY	4.61	1/3
EFTFDDYAMH	GISWNSGSIGRADSVK	VGRGGGYYDY	no signal	0/3
GFTFDDYAMH	GISWNSGSIGYAQSVK	VGRGGGYFLY	4.48	1/3
GFFFDDYAMH	GISWQSGSIGYADSVK	VGRGMGYFDY	4.11	1/3
GFTFDDYTMH	GISWNSGSIGYADSVK	VGRGGWYNDY	no signal	0/3
GFTFDDYAMM	GISWNSCSIGYADSVK	VGRGGFYFDY	5.04	1/3
GFTFDDYYMH	GISWNSGSIRYADSVK	VGRYGGYFDY	3.86	1/3
GFTFDDYAMH	GISWNSGSIGNADSVK	PGGGGGYFDY	4.19	1/3
IFTFDDYAMH	GISWFSGSIGYADSVK	VGRGGGYFDY	no signal	0/3
GFTFDDYAMH	GISINSGSIGYAISVK	VGRGGGYFDP	no signal	0/3

The opening 10 entries, copied out:

{"CDR-H1": "GFTFDDYAMH", "CDR-H2": "GISWNSGSIIYADSLK", "CDR-H3": "VGRGGGYFDY", "mean, log10 nM": "4.15", "seen in": "2/3"}
{"CDR-H1": "GFTFDRYAMG", "CDR-H2": "GISWNSGSIGYKDSVK", "CDR-H3": "VGRGGGYFDY", "mean, log10 nM": "4.72", "seen in": "2/3"}
{"CDR-H1": "GFTFDDYAMH", "CDR-H2": "GISWNSGSIGWADSVK", "CDR-H3": "QGRGGGSFDY", "mean, log10 nM": "no signal", "seen in": "0/3"}
{"CDR-H1": "GFTFDDYAMH", "CDR-H2": "GISRNSGSIVYADSVH", "CDR-H3": "VGRGGGYFDY", "mean, log10 nM": "3.87", "seen in": "1/3"}
{"CDR-H1": "GFTFDESAMH", "CDR-H2": "GISWNSGSIGYADSVK", "CDR-H3": "EGRGGGYFDY", "mean, log10 nM": "0.75", "seen in": "3/3"}
{"CDR-H1": "GFTFDDYAMH", "CDR-H2": "GISKASGSIGYADSVK", "CDR-H3": "VTRGGGYFDY", "mean, log10 nM": "5.26", "seen in": "1/3"}
{"CDR-H1": "GFTFDDYAMH", "CDR-H2": "GIHPNSGSIGVADSVK", "CDR-H3": "VGRGGGYFDY", "mean, log10 nM": "5.02", "seen in": "3/3"}
{"CDR-H1": "GFTFDDYAMH", "CDR-H2": "GISWNSGSGGYADSVK", "CDR-H3": "VHRGGRYFDY", "mean, log10 nM": "no signal", "seen in": "0/3"}
{"CDR-H1": "GFTFDDYAMH", "CDR-H2": "GISWPSGSIGYADSVK", "CDR-H3": "VGRGGGYFDA", "mean, log10 nM": "no signal", "seen in": "0/3"}
{"CDR-H1": "GFTFDDYAMH", "CDR-H2": "GFSWNSGAIGYGDSVK", "CDR-H3": "VGRGGGYFDY", "mean, log10 nM": "no signal", "seen in": "0/3"}